AlphaSeq binding of Ab-95 light chain variants to a spike HR2 peptide

From the AlphaSeq antibody data of Engelhart et al. 2022 (doi:10.1038/s41597-022-01779-4), copy in the FLAb collection.

The target is the same throughout: PDVDLGDISGINAS, from the HR2 region of SARS-CoV-2 spike.

Each scFv is VH, a 15-residue (Gly4Ser)3 linker, VL, as in the parent Ab-95, and differs from it in the CDRs of the light chain only.
VH: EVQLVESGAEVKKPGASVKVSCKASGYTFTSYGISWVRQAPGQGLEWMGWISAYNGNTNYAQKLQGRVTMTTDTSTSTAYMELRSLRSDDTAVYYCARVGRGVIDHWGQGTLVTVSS
VL: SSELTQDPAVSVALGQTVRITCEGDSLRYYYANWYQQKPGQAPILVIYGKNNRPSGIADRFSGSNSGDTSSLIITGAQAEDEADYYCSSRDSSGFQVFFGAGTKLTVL

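The parent was found by panning a naive human phage display library on the peptide. Library AAYL52 holds single substitutions and randomly drawn double and triple substitutions in the CDRs. Affinity was read by AlphaSeq, a pooled yeast mating assay with surface-displayed partners. Binding brings cells together so that they mate, and sequencing counts the barcode pairs among the diploids. The ratio of observed to expected reads was calibrated, replicate by replicate, on BCL2-family standards whose Kd was known from biolayer interferometry. The assay was run in three technical replicates.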

Each variant is given by its three light chain CDRs, as the data file delimits them; those of the parent are EGDSLRYYYAN, GKNNRPS, SSRDSSGFQVF.
Kd is apparent (estimated from mating counts) and averaged on the log scale over replicates with a signal. Smaller is tighter.
"no signal" marks a missing value. The strain was present, yet no cells mated with the target were sequenced in any replicate, which points to weak or no binding.
As a blank, each scFv also met three strains without target: over library AAYL52, 28% of these pairings were detected, typically at 8.2 µM and seldom below 800 nM. For each scFv, signals with the empty controls are counted beside the result.

CDR-L1	CDR-L2	CDR-L3	apparent Kd	detected	signal with controls
EGDSLYYYYSN	GKNNRPS	SSRDSSWFQVF	18 µM	1 of 3	1 of 9
EGDSLRYYYAN	GKLNRPS	SSRDSAGFQVF	4.7 µM	2 of 3	4 of 9
EGDSLRYCYAN	GKNNRPS	SSRCSAGFQVF	10 µM	3 of 3	5 of 9
EGDSLRYYYWN	GKNNLPS	SSRDSSGFIVF	7.5 µM	3 of 3	2 of 9
EGISLRYYYAN	GKANRPS	SSRDSSGRQVF	320 nM	3 of 3	2 of 9
EGDSFRYYYAT	GKNNRPS	SSRDSSGFVVF	140 nM	3 of 3	2 of 9
DGDSLRYYYAN	GKNNRPS	SSQDSSGFQVF	22 µM	2 of 3	1 of 9
EGDTLRYYYTN	GKNNRPS	SSRDSSCFQVF	14 µM	1 of 3	5 of 9
EGDSLRYYYAD	GKNNRPW	SSQDSSGFQVF	16 µM	1 of 3	5 of 9
EGDSLRYYYAT	GKNNRPH	GSRDSSGFQVF	3.6 µM	1 of 3	4 of 9
EGDSLRYYYAY	GKNNRPF	SLRDSSGFQVF	13 µM	1 of 3	3 of 9
EWDSLRYNYAN	GKNNRHS	SSRDSSGFQVF	940 nM	3 of 3	2 of 9
EKDSLRMYYAN	GKNNRPS	SSRDSSGFNVF	5.6 µM	2 of 3	6 of 9
EGDSLRYYLAN	GNNNRPS	SSRDNSGFQVF	79 nM	3 of 3	0 of 9
EADSLRYYYMN	GKNNRPS	SSRDSSGFQVF	1.3 µM	3 of 3	1 of 9
EGDSLRYYYAN	KKNNRPS	SSIGSSGFQVF	38 µM	1 of 3	4 of 9
EGDSLRMYYAN	GKNERPS	SSMDSSGFQVF	150 nM	3 of 3	3 of 9
EGDSLRYYYAN	GKGNRPS	SSCDSCGFQVF	430 nM	3 of 3	3 of 9
EGDSLHYYYAN	GKNNRPS	SSRVSSTFQVF	490 nM	3 of 3	1 of 9
EGDSLRYYYPN	FKNNRPS	SSRDSSGFHVF	11 µM	2 of 3	2 of 9
EGDSLRYYYAN	GKNQRPS	SARDSLGFQVF	240 nM	3 of 3	1 of 9
EDDSLRSYYAN	GKNNRPS	GSRDSSGFQVF	1.5 µM	3 of 3	5 of 9
EGDSLRYYYAN	IKNNRPF	SSRYSSGFQVF	13 µM	2 of 3	5 of 9
LGDSLRYYYAN	GKNCRPS	SSRDQSGFQVF	12 µM	1 of 3	0 of 9
EWDHLRYYYAN	GKNNRPS	SSRDSSGFQSF	11 µM	2 of 3	4 of 9
VGDSLRYYYAN	GWNNRPS	SSRDSHGFQVF	1.5 µM	2 of 3	2 of 9
FGDSLYYYYAI	GKNNRPS	SSRDSSGFQVF	150 µM	1 of 3	3 of 9
EGDSLRYYYAN	GKQNRPS	VSRDSSGFQNF	no signal	0 of 3	0 of 9
EGDSLRYYYAN	KWNNRPS	SSRDSSGFQVF	no signal	0 of 3	1 of 9
LGDSLRYYYAN	GKNIRPG	SSRDSSGFQVF	230 nM	3 of 3	3 of 9
CGISKRYYYAN	GKNNRPS	SSRDSSGFQVF	24 µM	2 of 3	2 of 9
EGDSLRYMYAN	GKNNRPS	DSRDESGFQVF	280 nM	3 of 3	5 of 9
EGDSLSYYYAN	GKNNRPS	SSRDSSGVQFF	4.8 µM	3 of 3	4 of 9
CDDSLRYYYAN	GQNNRPS	SSRDSSGFQVF	790 nM	2 of 3	2 of 9
EGDNLRYYYAN	GKNNRPS	SSWDSSGFQVF	670 nM	3 of 3	2 of 9
EGDSLRYYYAN	GKNNRPH	SSRDSSHWQVF	320 nM	3 of 3	1 of 9
EGDSLMYYYAN	GKNNRPY	SSRFSSGFQVF	no signal	0 of 3	3 of 9
NGDSLRGYYAN	GKNNRPS	SSRDSSGAQVF	19 nM	3 of 3	8 of 9
EGVVLRYYYAN	GKNNRPS	SSRDSSGSQVF	2.5 µM	1 of 3	3 of 9
EGDSLRYYYAN	GKNNRPS	SSRFSMGKQVF	270 nM	2 of 3	0 of 9
EGDSLRYYYAN	GKNNRPS	SIRDSSGFQVG	7.5 µM	2 of 3	0 of 9
EGDILRYYYAN	GKNNGPS	SSRDSSWFQVF	19 µM	1 of 3	2 of 9
EGDSLLYYYAN	HKNNRPS	SSRDSSGFQVG	3.2 µM	2 of 3	2 of 9
EGDSLVYYYAN	GKNNRPY	SSRDSSGFLVF	17 µM	3 of 3	3 of 9
EGDSLLYYYQN	GVNNRPS	SSRDSSGFQVF	no signal	0 of 3	1 of 9
EGDSLRAYYAG	GNNNRPS	SSRDSSGFQVF	37 µM	3 of 3	4 of 9
EGDSLRYYYAN	GKNNRPS	SSRDCSKFQVI	6.7 µM	2 of 3	3 of 9
EGDCLRYYYAN	GKINRPS	SSRDSSGIQVF	no signal	0 of 3	5 of 9
HGDSLPYYYAN	CKNNRPS	SSRDSSGFQVF	9.9 µM	2 of 3	0 of 9
EGVSLNYYYAN	YKNNRPS	SSRDSSGFQVF	no signal	0 of 3	1 of 9
EGDSLRYYYAN	GKNNRPS	SSRDSSGFQCQ	290 µM	1 of 3	2 of 9
EGDSLRYYYAE	GMNNRPS	SSYDSSGFQVF	no signal	0 of 3	2 of 9
EGDSLRYYYAN	GINNRPS	SGLDSSGFQVF	no signal	0 of 3	0 of 9
EGDSLNYYYAN	GKNNRPS	SSRDSSGSQHF	230 µM	1 of 3	2 of 9
EGDSLRNYYAG	GKNNRPS	SSWDSSGFQVF	no signal	0 of 3	0 of 9
EGDFLRYYYAN	GKPNRPS	SSVDSSGFQVF	10 µM	2 of 3	3 of 9
EGDSLVYYYAN	GKNNRPS	YSRDSSGFQLF	4.9 µM	2 of 3	2 of 9
EGDSLRYYYAT	GKNNDPS	SSRDSSGFQVS	3.5 µM	2 of 3	1 of 9
EGDSFRYYYAQ	GKNNRPS	SSRDSSGFQPF	490 µM	1 of 3	4 of 9
LGDSLRYYYLN	GKNNRPR	SSRDSSGFQVF	11 µM	1 of 3	1 of 9
EQDSLRYYYGN	GKNNRPS	SSRDSSWFQVF	no signal	0 of 3	2 of 9

Excerpt, the final 10 entries:

CDR-L1	CDR-L2	CDR-L3	apparent Kd	detected	signal with controls
EGDSLRYYYAE	GMNNRPS	SSYDSSGFQVF	no signal	0 of 3	2 of 9
EGDSLRYYYAN	GINNRPS	SGLDSSGFQVF	no signal	0 of 3	0 of 9
EGDSLNYYYAN	GKNNRPS	SSRDSSGSQHF	230 µM	1 of 3	2 of 9
EGDSLRNYYAG	GKNNRPS	SSWDSSGFQVF	no signal	0 of 3	0 of 9
EGDFLRYYYAN	GKPNRPS	SSVDSSGFQVF	10 µM	2 of 3	3 of 9
EGDSLVYYYAN	GKNNRPS	YSRDSSGFQLF	4.9 µM	2 of 3	2 of 9
EGDSLRYYYAT	GKNNDPS	SSRDSSGFQVS	3.5 µM	2 of 3	1 of 9
EGDSFRYYYAQ	GKNNRPS	SSRDSSGFQPF	490 µM	1 of 3	4 of 9
LGDSLRYYYLN	GKNNRPR	SSRDSSGFQVF	11 µM	1 of 3	1 of 9
EQDSLRYYYGN	GKNNRPS	SSRDSSWFQVF	no signal	0 of 3	2 of 9

In this assay the parent's reference entry averaged 200 nM; its copy inside this library read 180 nM.